## Measured affinities in a library of Ab-91 heavy chain variants

From the AlphaSeq antibody data of Engelhart et al. 2022 (doi:10.1038/s41597-022-01779-4), copy in the FLAb collection.

The target is the same throughout: PDVDLGDISGINAS, from the HR2 region of SARS-CoV-2 spike.

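Variants in AAYL51 differ from the parent at up to three CDR positions; double and triple changes were sampled at random. The scFvs were displayed on barcoded MATa yeast, the peptide on MATalpha yeast. After mating in shaken culture at 30 °C for 16 h, diploids were selected and their barcode pairs sequenced. Scores were corrected for input abundance and mapped to Kd with protein pairs of known affinity run in the same pool. Each pool was mated in three replicate cultures.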

Each scFv is VL, a 15-residue (Gly4Ser)3 linker, VH, as in the parent Ab-91, and differs from it in the CDRs of the heavy chain only.
VL: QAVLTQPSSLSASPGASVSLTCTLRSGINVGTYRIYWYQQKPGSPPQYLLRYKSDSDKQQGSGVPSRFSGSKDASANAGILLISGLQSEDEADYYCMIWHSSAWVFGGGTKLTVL
VH: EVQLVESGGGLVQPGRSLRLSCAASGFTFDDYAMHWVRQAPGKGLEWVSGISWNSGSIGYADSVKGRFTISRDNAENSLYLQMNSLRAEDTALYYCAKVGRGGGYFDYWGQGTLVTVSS

Changes read parent residue, position, new residue, counted from the first residue of the VH shown.
Every variant below is changed at G104 of the VH (sequential numbering).
The Kd shown is the geometric mean over detected replicates; a lower Kd is a better binder.
A pair that was not seen in any replicate is written "nd"; this usually means weak binding, but a binder can also be missed.
As a blank, each scFv also met three strains without target: over library AAYL51, 21% of these pairings were detected, typically at 34 µM and seldom below 1.8 µM.

- T28N+G104Q -> 32 µM (1 of 3 replicates)
- T28R+G104W+Y105D -> 88 µM (3 of 3 replicates)
- Y60Q+G104W -> 1.9 µM (1 of 3 replicates)
- D30K+I58W+G104T -> 3.5 µM (1 of 3 replicates)
- D30S+H35S+G104S -> 200 µM (3 of 3 replicates)
- G59H+G100Y+G104W -> 9.4 µM (1 of 3 replicates)
- Y60I+G102K+G104T -> 110 µM (1 of 3 replicates)
- Y32S+M34S+G104D -> nd (0 of 3 replicates)
- V99A+G104T+Y108C -> nd (0 of 3 replicates)
- G59I+G104S+Y105K -> nd (0 of 3 replicates)
- G26D+A61S+G104N -> 30 µM (3 of 3 replicates)
- F27G+S63L+G104T -> 5.3 µM (3 of 3 replicates)
- H35F+G104N+F106T -> 150 µM (2 of 3 replicates)
- T28A+K65F+G104V -> nd (0 of 3 replicates)
- K65H+G104W -> nd (0 of 3 replicates)
- G104L -> 14 µM (2 of 3 replicates)
- I51S+R101N+G104L -> 6.4 µM (1 of 3 replicates)
- G50F+Y60L+G104H -> 110 µM (3 of 3 replicates)
- S52K+G103N+G104C -> 180 µM (2 of 3 replicates)
- G104F+F106D+D107C -> 370 µM (2 of 3 replicates)
- N54I+G59V+G104D -> nd (0 of 3 replicates)
- W53A+A61G+G104E -> 57 µM (3 of 3 replicates)
- F29T+S63Q+G104E -> 2.1 µM (1 of 3 replicates)
- T28N+N54Y+G104W -> nd (0 of 3 replicates)
- W53N+G104Q+D107S -> 1.9 µM (3 of 3 replicates)
- S55V+G104T+F106Q -> nd (0 of 3 replicates)
- G26N+G104A+D107C -> nd (0 of 3 replicates)
- D62P+G104H -> 68 nM (3 of 3 replicates)
- G104Q -> nd (0 of 3 replicates)
- D31P+I58P+G104F -> 58 µM (1 of 3 replicates)
- I58W+G104K+F106N -> 52 µM (2 of 3 replicates)
- F27Q+R101I+G104C -> nd (0 of 3 replicates)
- G59D+G104V -> nd (0 of 3 replicates)

The closing 5 entries, repeated:

changes,apparent Kd,seen in
G104Q,nd,0/3
D31P+I58P+G104F,58 µM,1/3
I58W+G104K+F106N,52 µM,2/3
F27Q+R101I+G104C,nd,0/3
G59D+G104V,nd,0/3